Laboratory results taken from ChEMBL document CHEMBL1149707, “Structure-activity relationship studies of carboxamido-biaryl ethers as opioid receptor antagonists (OpRAs). Part 1” (Bioorg Med Chem Lett, 2007).

The chains behind the UniProt entries cited, without tags or fusion partners. Where a name states a change or a piece, a line headed by the entry shows the natural chain unless it says otherwise.
UniProt P41145: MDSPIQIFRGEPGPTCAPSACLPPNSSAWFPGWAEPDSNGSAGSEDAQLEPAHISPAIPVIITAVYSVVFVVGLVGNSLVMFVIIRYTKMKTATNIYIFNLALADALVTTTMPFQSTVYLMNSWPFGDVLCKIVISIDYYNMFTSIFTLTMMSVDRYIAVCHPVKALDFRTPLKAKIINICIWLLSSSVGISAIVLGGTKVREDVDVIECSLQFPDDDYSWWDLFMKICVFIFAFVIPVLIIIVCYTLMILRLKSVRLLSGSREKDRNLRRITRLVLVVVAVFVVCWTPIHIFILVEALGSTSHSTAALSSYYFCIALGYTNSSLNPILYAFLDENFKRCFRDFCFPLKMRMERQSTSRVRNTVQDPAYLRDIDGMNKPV

What was measured:
[1] = target: T1, Kappa-type opioid receptor (Homo sapiens, UniProt P41145); assay: Antagonist activity at human kappa opioid receptor expressed in CHO cells by [35S]GTP-gamma-S binding assay; assay type: functional, cell-based
[2] = target: T1, Kappa-type opioid receptor; assay: Displacement of [3H]diprenorphine from human kappa opioid receptor expressed in CHO cells in presence of high sodium by SPA; assay type: cell-based

## NC(=O)c1ccc(Oc2ccc(CNCCc3ccccc3)cc2)nc1
[1]
  Ki: 1.15 nM
[2]
  Ki: 8.38 nM
